Results: PubChem BioAssay AID2650 (Broad Institute, 2010)
This is a selection; strong and weak results do not stand in their true shares. Some tests of the compounds listed are not included; inactive here does not mean inactive elsewhere. Active and inactive are the calls of the source.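 Rule for the calls: active = more than half of replicates show inhibition above 20%; inconclusive = some but at most half of replicates above 20% inhibition; inactive = no replicate shows inhibition above 20%.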

Sequences of proteins named here, by UniProt entry; tags and fusion partners are left off.
UniProt P49840, whole entry: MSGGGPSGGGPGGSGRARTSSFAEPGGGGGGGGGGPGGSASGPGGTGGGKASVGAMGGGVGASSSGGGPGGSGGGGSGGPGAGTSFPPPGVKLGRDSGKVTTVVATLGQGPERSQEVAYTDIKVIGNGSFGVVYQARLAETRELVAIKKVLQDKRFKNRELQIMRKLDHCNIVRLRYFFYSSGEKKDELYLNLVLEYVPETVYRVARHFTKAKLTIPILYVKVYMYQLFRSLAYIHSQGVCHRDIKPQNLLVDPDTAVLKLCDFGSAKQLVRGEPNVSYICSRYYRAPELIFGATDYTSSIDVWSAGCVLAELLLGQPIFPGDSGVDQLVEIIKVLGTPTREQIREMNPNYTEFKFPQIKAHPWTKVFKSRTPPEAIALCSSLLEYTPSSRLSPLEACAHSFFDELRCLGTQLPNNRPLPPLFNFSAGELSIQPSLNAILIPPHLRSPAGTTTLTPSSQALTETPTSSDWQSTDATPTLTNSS

Biological target: Glycogen synthase kinase-3 alpha (Homo sapiens) (UniProt P49840)
Assay: blockers of GSK3A enzyme activity – biochemical, luminescence, cell-free homogeneous, HTS, primary screen (AID 2650);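 note: GST-tagged GSK-3 alpha with peptide substrate and 25 µM ATP; 0% = DMSO neutral wells and 100% = GW8510 positive control wells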
Conditions: GSK-3 alpha kinase, ADP-Glo luminescence, 60 min; at 10 µM; hits give high values

Row | Compound | inhibition
1 | CN1[C@@H]2CC[C@H]1CC(OC(=O)C(O)(c1ccccc1)c1ccccc1)C2 (some centres undefined) | inactive: 0.546%
2 | O=C(NCC1(N2CCCCC2)CCCCC1)c1cc([N+](=O)[O-])ccc1Cl | inactive: 1.89%
3 | Cc1ccc(C(=O)NCC2(N3CCCCC3)CCCCC2)cc1 | inactive: -0.737%
4 | CCN(CC)CC(C)C(C)OC(=O)C(O)(c1ccccc1)c1ccccc1 (centres undefined) | inactive: -2.41%
5 | COc1cc(SC)ccc1C(=O)NCC1(N(C)C)CCCCC1 | inactive: -2.31%
6 | CC(C)N1C(=O)CC2(CCN(CCOC(=O)C(O)(c3ccccc3)c3ccccc3)CC2)C1=O | inactive: -1.21%
7 | Cc1ccccc1C(=O)NCC1(N2CCCCC2)CCCCC1 | inactive: 1.46%
8 | CN(C)c1ccc(C(=O)NCC2(N(C)C)CCCCC2)cc1 | inactive: -0.56%
9 | CN(C)C1CCCC1OC(=O)C(O)(c1ccccc1)c1ccccc1 (centres undefined) | inactive: 0.169%
10 | COc1ccc(C(=O)NCC2(N(C)C)CCCCC2)cc1 | inactive: -1.9%
11 | CCN1CCCC(OC(=O)C2(O)c3ccccc3C=Cc3ccccc32)C1 (centres undefined) | inactive: 1.65%
12 | Cc1cc(C(=O)NCC2(N3CCCCC3)CCCCC2)ccc1[N+](=O)[O-] | inactive: 4.56%
13 | O=C(NCC1(N2CCCCC2)CCCCC1)c1cccc(Br)c1 | inactive: -1.26%
14 | C=CCN1CCN(CCOC(=O)C(O)(c2ccccc2)c2ccccc2)CC1 | inactive: -3.14%
15 | O=C(NCC1(N2CCCCC2)CCCCC1)c1cc(F)c(F)cc1Cl | inactive: -2.48%
16 | COc1cc(C(=O)NCC2(N(C)C)CCCCC2)c([N+](=O)[O-])cc1OC | inactive: 4.27%
17 | CN(C)C1(CNC(=O)c2ccc(Br)cc2)CCCCC1 | inactive: -3.03%
18 | O=C(NCC1(N2CCCCC2)CCCCC1)c1cccc(Cl)c1 | inactive: 0.112%
19 | COc1cccc(C(=O)NCC2(N3CCCCC3)CCCCC2)c1 | inactive: -0.585%
20 | COc1ccc(Cl)cc1C(=O)NCC1(N(C)C)CCCCC1 | inactive: 1.33%
21 | O=C(OC1CN2CCC1CC2)C(CO)(c1ccccc1)c1ccccc1 (centres undefined) | inactive: -0.397%
22 | CC(C)Oc1ccc(C(=O)NCC2(N(C)C)CCCCC2)cc1 | inactive: 0.303%
23 | CN(C)c1cccc(C(=O)NCC2(N(C)C)CCCCC2)c1 | inactive: -6.09%
24 | COc1ccc(Br)c(C(=O)NCC2(N3CCCCC3)CCCCC2)c1 | inactive: -2.24%
